Assay outcomes as filed in PubChem BioAssay.
Rows were chosen to be rich in hits. Some 16% of all compounds tested hit in one or more screens of this group.
TDP1 inh = inhibitors of human tyrosyl-DNA phosphodiesterase TDP1 | recombinant TDP1, AlphaScreen DNA substrate cleavage | Q9NUW8 | Potency, µM (doses to about 130 µM), actives largely listed as inhibitors | 0.28% of 350,000 active; further: nearly all actives have a fitted effect of over 40% in size
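Compounds were preincubated with Tdp1 (1 nM final) for 15 min at room temperature before substrate (15 nM final) started a 5 min reaction; beads (10 ug/ml final) were then added for 10 min before AlphaScreen detection.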
TDP1 cell noCPT = qHTS for Inhibitors of human tyrosyl-DNA phosphodiesterase 1 (TDP1): qHTS in cells in absence of CPT. AID 686978, 2013. DT40 Tdp1-/- hTDP1 cells, no CPT, ATP luminescence, 48 h. 15% of 420,000 active. Potency, µM (highest dose often 46.2 µM), actives largely listed as inhibitors; further: nearly all actives have a fitted effect of over 55% in size
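Growth kinetics read by CellTiter-Glo luminescence after ≥48 hr at 37 °C. Cells: DT40 Tdp1-/- stably carrying human TDP1, 400 per well, compound exposure in the absence of CPT (DMSO vehicle).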
uPA generation = inhibitors of cell surface uPA generation; 0.31% of 330,000 active; AID 540303; cell surface uPA generation assay, qHTS; Potency, µM (doses to about 38.3 µM), actives largely listed as inhibitors; active means well fitted inhibition curve with a large enough effect; inconclusive means small, poorly fitted or top-dose-only effect; inactive means no such curve, though single readings can be large or run the other way; tested in mouse RAW 264.7 cells; further: nearly all actives have a fitted effect of over 55% in size
miR-21 reporter = raises the signal of a miR-21 reporter | Potency, µM (doses to about 38.3 µM) | HeLa miR-21 FLuc reporter, luciferase, 48 h | AID 2288 | 340,000 tested, under 10 active; active = well fitted rising curve with a large enough effect; inconclusive = small, poorly fitted or top-dose-only effect; inactive = no such curve, though single readings can be large or run the other way;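 also: miR-21 action dims this reporter so a rising signal means less miR-21 action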
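HeLa cells stably expressing CMV-driven firefly luciferase with a downstream miR-21 binding sequence, endogenously expressing miR-21, were treated with titrations (up to about 40uM final) for 48 hours at 37 degree Celsius. Luciferase luminescence was read after lysis.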
TDP1 cell CPT = DT40-hTDP1 cell growth loss with CPT; 12% of 420,000 active; chicken DT40 Tdp1-/-;hTDP1 cells + 20 nM CPT, ATP luminescence, 48 h; Potency, µM (series often up to 46.2 µM), usual class: inhibitors; further: nearly all actives have a fitted effect of over 55% in size
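Chicken DT40 Tdp1-/- cells complemented with human TDP1, 400 cells/well, exposed to compounds plus 20 nM camptothecin for at least 48 h at 37 C; viability read as ATP content by CellTiter-Glo luminescence.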
Hits are given with their value; 0 = inactive; ? = inconclusive; - = no result; ! = not active in a repeat; [ ] = remark or other dose. Unless noted, the call rests on the fitted dose curve; in most records, active means well fitted curve in the direction sought with a large enough effect; inconclusive means small, poorly fitted or top-dose-only effect, or another doubt; inactive means no such curve, though single readings can be large; an effect the other way counts as inactive or inconclusive.

SMILES	TDP1 inh	TDP1 cell noCPT	uPA generation	miR-21 reporter	TDP1 cell CPT
O=C(CSc1nc2c([nH]c3ccccc32)c(=O)n1-c1cccc(Cl)c1)N1CCc2ccccc21	0	?	-	0	?
Cc1ccsc1/C=N/NC(=O)C(N)=O	0	?	0	0	0
CCC1CCCCN1C(=O)CSc1nc2c([nH]c3ccccc32)c(=O)n1-c1cccc(OC)c1 (configuration not stated)	0	26µM	-	0	?
COc1cccc(-n2c(SCC(N)=O)nc3c([nH]c4ccccc43)c2=O)c1	0	16µM	0	0	18µM
O=C(CSc1nc2c([nH]c3ccccc32)c(=O)n1-c1ccccc1)N1CCCC1	0	0	-	0	0
COc1cccc(-n2c(SCC(=O)N3CCCCC3)nc3c([nH]c4ccccc43)c2=O)c1	0	21µM	0	0	?
O=C(CSc1nc2c([nH]c3ccccc32)c(=O)n1-c1cccc(Cl)c1)N1CCOCC1	0	15µM!	0	0	18µM!
COc1cccc(-n2c(SCC(=O)Nc3cc(C)on3)nc3c([nH]c4ccccc43)c2=O)c1	0	?	0	0	?
COc1cccc(C2SCC(=O)N2c2ccc(Cl)cc2)c1OC (configuration not stated)	0	?	0	0	0
O=C(NC(CSC(=O)c1ccccc1)C(=O)O)OCc1ccccc1 (configuration not stated)	-	0	0	-	0
CCc1ccc(OCc2nnc(NC(=O)c3cccs3)s2)cc1	0	0	0	0	0
Cc1cc(C)c(S(=O)(=O)N2CCN(C(=O)CCn3nc(C)c(C)c3C)CC2)c(C)c1	0	15µM	0	0	0
COc1cccc(N2CCN(C(=O)CCn3nc(C)c(S(=O)(=O)N4CCCC4)c3C)CC2)c1	-	15µM	-	0	?
Nc1nc(O)c(Sc2ccccc2[N+](=O)[O-])c(=O)[nH]1	0[0.0935 µM]	0	0	0	0
COc1cc2c3nnc(-c4ccc(F)cc4)c-3cn(Cc3ccccc3)c2cc1OC	0	5.2µM	0	0	3.3µM
COc1cc2c3nnc(-c4ccc(F)cc4)c-3cn(Cc3ccc(F)cc3)c2cc1OC	0	2.6µM	0	0	2.3µM
Cn1nc2c3cc(F)ccc3n(Cc3ccc(F)cc3)cc-2c1=O	-	?	0	0	0
COc1ccc(Cn2cc3c(-c4ccc(F)cc4)nnc-3c3cc(OC)c(OC)cc32)cc1	0	4.1µM	0	0	4.1µM
CCOC(=O)c1nn(-c2ccc(Cl)cc2Cl)c(=N)c(C#N)c1C	-	-	-	0	-
O=C(NCC(c1cccnc1)N1CCc2ccccc2C1)C(=O)Nc1ccc(Cl)cc1 (configuration not stated)	0	8.2µM	-	0	12µM
O=C(NCC(c1cccnc1)N1CCc2ccccc2C1)C(=O)Nc1cccc(Cl)c1 (configuration not stated)	0	18µM	-	0	21µM
O=[N+]([O-])c1ccc(S(=O)(=O)NCC(c2cccnc2)N2CCc3ccccc3C2)cc1 (configuration not stated)	0	21µM	0	-	?
O=[N+]([O-])c1ccc(S(=O)(=O)NCC(c2cccnc2)N2CCOCC2)cc1 (configuration not stated)	0	0	0	0	0
Cc1cccc(N(CC(=O)NC(C)(C)C)C(=O)CNC(=O)c2cccs2)c1	0	0	0	0	0
CC(/C=N/Nc1nc(C)cc(C)n1)=C\c1ccc(C(C)C)cc1	0	?	0	0	?
SMILES	TDP1 inh	TDP1 cell noCPT	uPA generation	miR-21 reporter	TDP1 cell CPT
O=C(NCCc1ccccc1)C1CCCN(c2cnccn2)C1 (configuration not stated)	0	0	0	0	0
CC(Sc1nnc(Cc2ccc3c(c2)OCO3)o1)C(N)=O (configuration not stated)	0	0	-	0	0
O=[N+]([O-])c1ccccc1-c1ccc(C(=S)N2CCCC2)o1	0	?	0	0	26µM
Cc1c(Cl)cccc1-c1ccc(C(=O)N2CCN(c3ccc([N+](=O)[O-])cc3)CC2)o1	0	26µM	0	0	?
O=[N+]([O-])c1ccccc1-c1ccc(C(=S)N2CCCCC2)o1	0	?	0	0	0
CN1CCN(C(=S)c2ccc(-c3cccc([N+](=O)[O-])c3)o2)CC1	0	23µM	?	0	0
O=C(c1ccc(-c2ccc([N+](=O)[O-])cc2)o1)N1CCCCCCC1	0	10µM	?	-	12µM
O=[N+]([O-])c1cccc(-c2ccc(C(=S)N3CCOCC3)o2)c1	0	?	0	0	0
CC(=O)Nc1ccc(S(=O)(=O)NCC2CC3CCC2C3)cc1 (configuration not stated)	-	?	0	-	?
COc1ccc(NC(=O)N[C@H]2C=C[C@@H](CC(=O)NC3CCC3)O[C@@H]2CO)cc1	-	0	-	-	0
FCCCOc1ccc(-c2nccc(-c3ccccn3)n2)cc1	-	0	0	0	0
Cc1cc2oc(=O)cc(-c3ccccc3)c2c(C)c1-c1cccc(N)c1	0	-	-	-	-
Cc1nn(-c2ccccc2)c2sc(C(=O)c3c(N)n(C)c(=O)n(C)c3=O)cc12	0	?	0	0	?
CN(Cc1c(C(=O)N/N=C/c2c(F)cccc2Cl)nnn1-c1nonc1N)C1CCCCC1	-	0	-	-	0
O=C(c1ccc(-c2cccc(Cl)c2)o1)N1CCN(c2ccc([N+](=O)[O-])cc2)CC1	0	21µM	0	0	?
O=C(Nc1ccc(F)cc1F)C1CCN(C(=O)c2cnn(-c3ccccc3)c2-n2cccc2)CC1	0	?	-	?	?
CCCSCCCNC(=O)C1CCN(C(=O)c2cnn(-c3ccccc3)c2-n2cccc2)CC1	0	?	-	0	18µM
CCc1cccc(NC(=O)C2CCN(C(=O)c3cnn(-c4ccccc4)c3-n3cccc3)CC2)c1	0	15µM	-	0	21µM
O=C(Nc1cc(F)ccc1F)C1CCN(C(=O)c2cnn(-c3ccccc3)c2-n2cccc2)CC1	0	26µM	-	0	?
CC(=O)c1cccc(NC(=O)C2CCN(C(=O)c3cnn(-c4ccccc4)c3-n3cccc3)CC2)c1	0	?	-	?	?
Cc1ccc(Cl)cc1NC(=O)C1CCN(C(=O)c2cnn(-c3ccccc3)c2-n2cccc2)CC1	0	21µM	-	0	0
O=S(=O)(NCc1ccc(Cl)cc1)NCc1ccccc1F	0	0	0	0	0
O=C(Nc1ccc(F)c(Cl)c1)c1cc(C2CCCCN2C(=O)c2ccc3c(c2)CCO3)on1 (configuration not stated)	-	21µM	-	-	16µM
O=C(NCc1ccc(F)cc1)c1cc(C2CCCCN2C(=O)c2ccc3c(c2)CCO3)on1 (configuration not stated)	-	18µM	-	-	18µM
O=C(Nc1ccccc1)c1cc(C2CCCCN2C(=O)c2ccc3c(c2)CCO3)on1 (configuration not stated)	-	18µM	-	-	23µM
